Values of other authors, collected in patent US20250090529A1, “USE OF SHP2 INHIBITORS FOR THE TREATMENT OF INSULIN RESISTANCE” (INSERM (INSTITUT NATIONAL DE LA SANTÉ ET DE LA RECHERCHE …, priority 2018, published 2025).

Molecular target: SHP2 (Homo sapiens, UniProt Q06124)
Details: Garcia Fortanet et al., J Med Chem 2016; cited from earlier work

In the case of `CC1(N)CCN(c2cnc(-c3cccc(Cl)c3Cl)c(N)n2)CC1` [SHP099, 6-(4-amino-4-methylpiperidin-1-yl)-3-(2,3-dichlorophenyl)pyrazin-2-amine], the specificity is given as “highly specific”.
